In the assay the test system is DLD1-WRN-KO cells. As to the kind of experiment: Proliferation assay DLD1-WRN-KO (CellTiterGlo, off-target effects). Type of assay: cell-based. To be noted: 96 h, read-out: Proliferation Assay DLD1-WRN-KO GI50. As to the method: The WRN-knockdown insensitive colon carcinoma cell line DLD-1 (RRID: CVCL_0248) was obtained from the Korean Cell Line Bank (KCLB), and used to generate a derivative in which the endogenous WRN gene copies were knocked out by CRISPR-mediated editing using standard CRISPR methods. The resulting cell line, DLD1-WRN-KO, was used to assess potential off-target compound effects. […]
Three replicate plates were prepared for each compound treatment condition. In addition, one plate (termed “day 0”) was prepared to quantify the number of viable cells at the time of compound addition. […] 96 hours after compound addition, cellular ATP levels as a surrogate for cell viability was assessed following addition of 50 microliters CellTiterGlo (Promega Cat #G7573) reagent and luminescence quantification on a MPLEX multi-mode plate-reader (TECAN) following a 10 minute incubation at room temperature. The number of viable cells in the “day 0” plate were quantified identically on the day of compound addition.
For data analysis, the assay background signal that was determined in wells containing medium, but no cells, was subtracted from all other data points prior to further calculations. The extent of growth inhibition and potential cell kill was assessed by comparing the ATP levels (measured using CellTiterGlo, Promega) in compound-treated cells with those present at the time of compound addition. […]
A general note: ATP-based viability assays read luminescence as a measure of living cells.

Structures are written as SMILES.

In the case of `CCc1c(N2CCN(C(=O)c3nccc4cc[nH]c34)CC2)c(=O)n2nc(C3=CCOCC3)nc2n1CC(=O)Nc1ccc(C(F)(F)F)cc1C` [Example 41, 2-(6-(4-(1H-pyrrolo[2,3-c]pyridine-7-carbonyl)piperazin-1-yl)-2-(3,6-dihydro-2H-pyran-4-yl)-5-ethyl-7-oxo-[1,2,4]triazolo[1,5-a]pyrimidin-4(7H)-yl)-N-(2-methyl-4-(trifluoromethyl)phenyl)acetamide], the GI50 was 6 µM.

(Values after patent US20260250289A1, “BICYCLIC HETEROCYCLES AND THEIR USE AS WRN INHIBITORS” (Novartis AG, priority 2022, published 2026).)
